According to BindingDB's records for doi:10.1021/acs.jnatprod.9b00140 (University of Illinois At Chicago, 2019):
pIC50: −log10 of the molar value.

The chains behind the UniProt entries cited, without tags or fusion partners.
UniProt Q04206, whole entry: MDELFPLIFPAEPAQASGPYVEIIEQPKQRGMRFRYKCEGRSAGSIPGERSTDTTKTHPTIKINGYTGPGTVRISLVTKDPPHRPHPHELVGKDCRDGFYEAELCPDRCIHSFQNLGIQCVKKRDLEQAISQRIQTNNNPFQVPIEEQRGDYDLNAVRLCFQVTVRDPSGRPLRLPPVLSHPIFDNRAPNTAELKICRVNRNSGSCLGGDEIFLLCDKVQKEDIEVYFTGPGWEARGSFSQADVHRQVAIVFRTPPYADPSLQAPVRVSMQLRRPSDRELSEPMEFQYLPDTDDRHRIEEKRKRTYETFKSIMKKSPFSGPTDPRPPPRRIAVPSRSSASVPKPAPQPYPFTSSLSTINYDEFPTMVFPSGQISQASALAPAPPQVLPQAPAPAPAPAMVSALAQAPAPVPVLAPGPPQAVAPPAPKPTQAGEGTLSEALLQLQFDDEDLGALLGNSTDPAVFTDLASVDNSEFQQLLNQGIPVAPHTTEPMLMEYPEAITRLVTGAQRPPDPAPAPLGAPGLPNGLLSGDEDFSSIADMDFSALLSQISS

Biological target: Transcription factor p65 (Human, UniProt Q04206)
Experiment: Inhibition of TNF alpha stimulated NF-KappaB p65 in human HeLa nuclear extract assessed as decrease in NF-KappaB translocation to nucleus measured after 5 hrs by ELISA
Outline: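 Cells treated with four concentrations (0.05–50 μM) plus TNF-α for 5 h; nuclear extracts prepared and NF-κB p65 translocation to nucleus read as absorbance in an ELISA format; IC50 by non-linear curve fitting.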

How did the pIC50 turn out when `COc1ccc([C@@]23Oc4cc(OC)cc(OC)c4[C@]2(O)[C@H](O)[C@H](C(=O)N(C)C)[C@H]3c2ccccc2)cc1` [Rocaglamide] was run?
Its pIC50 is 6.92.
